pIC50: −log10 of the molar value.

The test system of the experiment is JAK1-dependent STAT6 phosphorylation downstream of IL-13 stimulation in BEAS-2B cells.
One may read the pIC50 as −log10 of the IC50, conventionally taken in molar units. Low values mean a high IC50, high ones a low IC50. In turn, `CN1CCN(C(=O)Cn2cc(Nc3nc4c(N5CC6CCC(C5)N6C(=O)c5ccccc5Cl)cccn4n3)cn2)CC1` [Example 114] showed a pIC50 of 7.02.

Take `CSc1ccccc1C(=O)N1C2CCC1CN(c1cccn3nc(Nc4cnn(CC(=O)N5CCN(C)CC5)c4)nc13)C2` [Example 115]: the pIC50 was 6.88. The pIC50 values of the last two compounds are within 0.2 log units of each other.

As for `CN1CCN(C(=O)Cn2cc(Nc3nc4c(N5CC6CCC(C5)N6C(=O)C5(C#N)CCC5)cccn4n3)cn2)CC1` [Example 116, 1-[3-[2-[[1-[2-(4-methylpiperazin-1-yl)-2-oxo-ethyl]pyrazol-4-yl]amino]-[1,2,4]triazolo[1,5-a]pyridin-8-yl]-3,8-diazabicyclo[3.2.1]octane-8-carbonyl]cyclobutane-carbonitrile], the pIC50 is 6.80.

`CCc1cnn([C@@]2(CC#N)[C@@H]3CC[C@H]2CN(c2cccn4nc(Nc5cnn(CC(=O)N6CCN(C)CC6)c5)nc24)C3)c1` [Example 117, 2-[(1R,5S)-8-(4-ethylpyrazol-1-yl)-3-[2-[[1-[2-(4-methylpiperazin-1-yl)-2-oxo-ethyl]pyrazol-4-yl]amino]-[1,2,4]triazolo[1,5-a]pyridin-8-yl]-3-azabicyclo[3.2.1]octan-8-yl]acetonitrile] gave a pIC50 of 6.34.

As to `CN1CCN(C(=O)Cn2cc(Nc3nc4c(N5CC6CCC(C5)C6=CC#N)cccn4n3)cn2)CC1` [Example 118, 2-[3-[2-[[1-[2-(4-methylpiperazin-1-yl)-2-oxo-ethyl]pyrazol-4-yl]amino]-[1,2,4]triazolo[1,5-a]pyridin-8-yl]-3-azabicyclo[3.2.1]octan-8-ylidene]acetonitrile], the pIC50 was 7.63.

`N#CC1(CNC2CCN(C(=O)Cn3cc(Nc4nc5c(N6CC7CCC(C6)N7C(=O)N6CC(C(F)(F)F)C6)cccn5n4)cn3)CC2)CC1` [Example 119, 1-[[[1-[2-[4-[[8-[8-[3-(trifluoromethyl)azetidine-1-carbonyl]-3,8-diazabicyclo[3.2.1]octan-3-yl]-[1,2,4]triazolo[1,5-a]pyridin-2-yl]amino]pyrazol-1-yl]acetyl]-4-piperidyl]amino]methyl] cyclopropanecarbonitrile] had a pIC50 of 6.48.

`CC(F)(F)CNC1CCN(C(=O)Cn2cc(Nc3nc4c(N5CC6CCC(C5)N6C(=O)N5CC(C(F)(F)F)C5)cccn4n3)cn2)CC1` [Example 120, 1-[4-(2,2-difluoropropylamino)-1-piperidyl]-2-[4-[[8-[8-[3-(trifluoromethyl)azetidine-1-carbonyl]-3,8-diazabicyclo[3.2.1]octan-3-yl]-[1,2,4]triazolo[1,5-a]pyridin-2-yl]amino]pyrazol-1-yl]ethanone] showed a pIC50 of 7.12.

On to `O=C(Cn1cc(Nc2nc3c(N4CC5CCC(C4)N5C(=O)N4CC(C(F)(F)F)C4)cccn3n2)cn1)N1CCC(CN2CCOCC2)CC1` [Example 121, 1-[4-(morpholinomethyl)-1-piperidyl]-2-[4-[[8-[8-[3-(trifluoromethyl)azetidine-1-carbonyl]-3,8-diazabicyclo[3.2.1]octan-3-yl]-[1,2,4]triazolo[1,5-a]pyridin-2-yl]amino]pyrazol-1-yl]ethanone], for which the pIC50 is 7.00.

For the compound `CN1CCN(C(=O)Cn2cc(Nc3nc4c(N5CC6CCCC(C5)N6C(=O)N5CC(C(F)(F)F)C5)cccn4n3)cn2)CC1` [Example 122, 1-(4-methylpiperazin-1-yl)-2-[4-[[8-[9-[3-(trifluoromethyl)azetidine-1-carbonyl]-3,9-diazabicyclo[3.3.1]nonan-3-yl]-[1,2,4]triazolo[1,5-a]pyridin-2-yl]amino]pyrazol-1-yl]ethanone], the pIC50 was 7.32.

`CC(C(=O)N1CCN(C)CC1)n1cc(Nc2nc3c(N4CC5CCC(C4)N5C(=O)C4CC(C(F)(F)F)C4)cccn3n2)cn1` (stereo not drawn) [Example 123, 1-(4-methylpiperazin-1-yl)-2-[4-[[8-[8-(3-(trifluoromethyl)-cyclobutanecarbonyl]-3,8-diazabicyclo[3.2.1]octan-3-yl]-[1,2,4]triazolo[1,5-a]pyridin-2-yl]amino]pyrazol-1-yl]propan-1-one] had a pIC50 of 7.29.

As to `CC(C(=O)N1CCN(C)CC1)n1cc(Nc2nc3c(N4CC5CCC(C4)N5C(=O)C4CC(C(F)(F)F)C4)cccn3n2)cn1` (stereo not drawn) [Example 124, 1-(4-methylpiperazin-1-yl)-2-[4-[[8-[8-(3-(trifluoromethyl)-cyclobutanecarbonyl]-3,8-diazabicyclo[3.2.1]octan-3-yl]-[1,2,4]triazolo[1,5-a]pyridin-2-yl]amino]pyrazol-1-yl]propan-1-one], the pIC50 is 6.76.

For `CC(C(=O)N1CCN(C)CC1)n1cc(Nc2nc3c(N4CC5CCC(C4)N5C(=O)C4CC(C(F)(F)F)C4)cccn3n2)cn1` (stereo not drawn) [Example 125, 1-(4-methylpiperazin-1-yl)-2-[4-[[8-[8-(3-(trifluoromethyl)-cyclobutanecarbonyl]-3,8-diazabicyclo[3.2.1]octan-3-yl]-[1,2,4]triazolo[1,5-a]pyridin-2-yl]amino]pyrazol-1-yl]propan-1-one], the pIC50 is 7.15. This pIC50 is 0.39 log units higher than that of the compound before.

Take `CC(C(=O)N1CCN(C)CC1)n1cc(Nc2nc3c(N4CC5CCC(C4)N5C(=O)C4CC(C(F)(F)F)C4)cccn3n2)cn1` (stereo not drawn) [Example 126, 1-(4-methylpiperazin-1-yl)-2-[4-[[8-[8-(3-(trifluoromethyl)-cyclobutanecarbonyl]-3,8-diazabicyclo[3.2.1]octan-3-yl]-[1,2,4]triazolo[1,5-a]pyridin-2-yl]amino]pyrazol-1-yl]propan-1-one]: the pIC50 is 6.78.

For `CN1CCN(C(=O)Cn2cc(Nc3nc4c(N5C[C@H]6CC[C@@H](C5)[C@H]6N(C)CCC(F)(F)F)cccn4n3)cn2)CC1` [Example 127, 1-(4-methylpiperazin-1-yl)-2-[4-[[8-[(1S,5R)-8-[methyl(3,3,3-trifluoropropyl)amino]-3-azabicyclo[3.2.1]octan-3-yl]-[1,2,4]triazolo[1,5-a]pyridin-2-yl]amino]pyrazol-1-yl]ethanone], the pIC50 was 6.75. This pIC50 and that of the compound before are within 0.2 log units of each other.

Consider `CN1CCN(C(=O)Cn2cc(Nc3nc4c(N5C[C@H]6CC[C@@H](C5)[C@H]6OCc5ccc(C#N)cc5)cccn4n3)cn2)CC1` [Example 128, 4-[[(1S,5R)-3-[2-[[1-[2-(4-methylpiperazin-1-yl)-2-oxo-ethyl]pyrazol-4-yl]amino]-[1,2,4]triazolo[1,5-a]pyridin-8-yl]-3-azabicyclo[3.2.1]octan-8-yl]oxymethyl]benzonitrile], for which the pIC50 is 7.69.

For the compound `CN1CCN(C(=O)Cn2cc(Nc3nc4c(N5C[C@H]6CC[C@@H](C5)[C@H]6OCc5cccc(C#N)c5)cccn4n3)cn2)CC1` [Example 129, 3-[[(1S,5R)-3-[2-[[1-[2-(4-methylpiperazin-1-yl)-2-oxo-ethyl]pyrazol-4-yl]amino]-[1,2,4]triazolo[1,5-a]pyridin-8-yl]-3-azabicyclo[3.2.1]octan-8-yl]oxymethyl]benzonitrile], the pIC50 was 7.50.

As for `CC(C)(C#N)CNC1CCN(C(=O)Cn2cc(Nc3nc4c(N5CC6CCC(C5)N6C(=O)N5CC(C(F)(F)F)C5)cccn4n3)cn2)CC1` [Example 131, 2,2-dimethyl-3-[[1-[2-[4-[[8-[8-[3-(trifluoromethyl)azetidine-1-carbonyl]-3,8-diazabicyclo[3.2.1]octan-3-yl]-[1,2,4]triazolo[1,5-a]pyridin-2-yl]amino]pyrazol-1-yl]acetyl]-4-piperidyl]amino]-propanenitrile], the pIC50 was 7.32.

In turn, `CSc1ccccc1S(=O)(=O)N1C2CCC1CN(c1cccn3nc(Nc4cnn(CC(=O)N5CCN(C)CC5)c4)nc13)C2` [Example 132, 1-(4-methylpiperazin-1-yl)-2-[4-[[8-[8-(2-methylsulfanylphenyl)sulfonyl-3,8-diazabicyclo[3.2.1]octan-3-yl]-[1,2,4]triazolo[1,5-a]pyridin-2-yl]amino]pyrazol-1-yl]ethanone] had a pIC50 of 6.33.

`CN1CCN(C(=O)Cn2cc(Nc3nc4c(N5CC6CCC(C5)N6S(=O)(=O)c5cccc(C(F)(F)F)c5)cccn4n3)cn2)CC1` [Example 133, 1-(4-methylpiperazin-1-yl)-2-[4-[[8-[8-(3-(trifluoromethyl)phenyl]sulfonyl-3,8-diazabicyclo[3.2.1]octan-3-yl]-[1,2,4]triazolo[1,5-a]pyridin-2-yl]amino]pyrazol-1-yl]ethanone] showed a pIC50 of 7.28.

Consider `CN1CCN(C(=O)Cn2cc(Nc3nc4c(N5CC6CCC(C5)N6S(=O)(=O)c5ccc(F)cc5)cccn4n3)cn2)CC1` [Example 134, 2-[4-[[8-[8-(4-fluorophenyl)sulfonyl-3,8-diazabicyclo[3.2.1]octan-3-yl]-[1,2,4]triazolo[1,5-a]pyridin-2-yl]amino]pyrazol-1-yl]-1-(4-methylpiperazin-1-yl)ethanone], for which the pIC50 is 7.47.

In turn, `CN1CCN(C(=O)Cn2cc(Nc3nc4c(N5CC6CCC(C5)N6S(=O)(=O)c5ccc(C(F)(F)F)cc5)cccn4n3)cn2)CC1` [Example 135, 1-(4-methylpiperazin-1-yl)-2-[4-[[8-[8-(4-(trifluoromethyl)phenyl]sulfonyl-3,8-diazabicyclo[3.2.1]octan-3-yl]-[1,2,4]triazolo[1,5-a]pyridin-2-yl]amino]pyrazol-1-yl]ethanone] had a pIC50 of 7.83.

As for `CN1CCN(C(=O)Cn2cc(Nc3nc4c(N5CC6CCC(C5)N6S(=O)(=O)c5ccc(Cl)cc5F)cccn4n3)cn2)CC1` [Example 136, 2-[4-[[8-[8-(4-chloro-2-fluoro-phenyl)sulfonyl-3,8-diazabicyclo[3.2.1]octan-3-yl]-[1,2,4]triazolo[1,5-a]pyridin-2-yl]amino]pyrazol-1-yl]-1-(4-methylpiperazin-1-yl)ethanone], the pIC50 is 7.43.

For `CN1CCN(C(=O)Cn2cc(Nc3nc4c(N5CC6CCC(C5)N6Cc5ccccc5F)cccn4n3)cn2)CC1` [Example 137, 2-(4-((8-((1R,5 S)-8-(2-fluorobenzyl)-3,8-diazabicyclo[3.2.1]octan-3-yl)-[1,2,4]triazolo[1,5-a]pyridin-2-yl)amino)-1H-pyrazol-1l-yl)-1-(4-methylpiperazin-1-yl)ethan-1-one], the pIC50 was 7.38. This pIC50 and that of the compound before are within 0.2 log units of each other.

As to `Cc1ncc(S(=O)(=O)N2C3CCC2CN(c2cccn4nc(Nc5cnn(CC(=O)N6CCN(C)CC6)c5)nc24)C3)s1` [Example 138, 1-(4-methylpiperazin-1-yl)-2-[4-[[8-[8-(2-methylthiazol-5-yl)sulfonyl-3,8-diazabicyclo[3.2.1]octan-3-yl]-[1,2,4]triazolo[1,5-a]pyridin-2-yl]amino]pyrazol-1-yl]ethanone], the pIC50 was 7.57.

The values above are taken from patent US10189836B2, “Therapeutic compounds, compositions and methods of use thereof” (Genentech, Inc., priority 2015, dated 2019).
